Assay results: patent US20240109900A1, “AZABICYCLIC SHP2 INHIBITORS” (IRBM S.P.A., priority 2021, published 2024)

Chains of the proteins cited; added tags and fusions are not shown. Residues count along the entry.
UniProt Q06124, 1-525 limits assumed: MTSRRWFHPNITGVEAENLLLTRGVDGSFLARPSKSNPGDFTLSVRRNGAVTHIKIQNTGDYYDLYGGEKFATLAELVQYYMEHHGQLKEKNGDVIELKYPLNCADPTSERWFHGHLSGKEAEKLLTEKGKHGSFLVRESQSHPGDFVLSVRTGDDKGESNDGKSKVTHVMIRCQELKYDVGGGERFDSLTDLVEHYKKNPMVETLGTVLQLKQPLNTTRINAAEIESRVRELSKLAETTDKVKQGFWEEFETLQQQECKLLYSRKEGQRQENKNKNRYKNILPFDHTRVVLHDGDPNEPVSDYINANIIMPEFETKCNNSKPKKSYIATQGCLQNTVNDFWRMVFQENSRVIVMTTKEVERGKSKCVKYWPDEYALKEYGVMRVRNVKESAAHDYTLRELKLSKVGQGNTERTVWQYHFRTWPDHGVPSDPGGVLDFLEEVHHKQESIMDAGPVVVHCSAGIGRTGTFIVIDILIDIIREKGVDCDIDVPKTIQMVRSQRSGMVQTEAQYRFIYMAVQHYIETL

Legend:
[1] = biological target: SHP-2 enzyme (Met1-Leu525) (Homo sapiens (Human), UniProt Q06124); experiment: SHP2 inhibition enzymatic assay; assay type: biochemical; conditions: read-out: SHP2wt-IC50; 0.5 nM SHP-2 activated by 500 nM IRS1 peptide, 75 μM DiFMUP substrate; tested form: TFA
[2] = system: ERK phosphorylation in KYSE-520 cells; experiment: Phospho-ERK cellular assay; assay type: cell-based; conditions: read-out: PERK IC50, 2 h at 37° C., phospho-ERK1/2 (Thr202/Tyr204) TR-FRET, tested form: TFA
Procedure: ERK phosphorylation was detected using the “Advanced phospho-ERK1/2 (Thr202/Tyr204)” TR-FRET kit (Cisbio, Cat #64AERPEG/H), following the manufacturer reagents and instructions.
Briefly, 20.000/well KYSE-520 cells (DSMZ ACC 371) were plated in 6 μL RPMI-1640 (Invitrogen) growth medium, into 384 white low-volume high base TC microplates (Greiner). After an overnight incubation, cells were treated with DMSO serial diluted compounds and incubated for 2 h at 37° C. After incubation, 2 μL/well of 4×Lysis Buffer (Cisbio 64KL1FDF), were added and incubated with cells for 30 min on gentle shaking. Finally, lysates were added with 2 μL/well of Eu cryptate (donor) and D2 (acceptor) conjugated antibodies (as provided by the Cisbio kit #64AERPEG/H) diluted 1:100 in Detection Buffer (as provided by the Cisbio kit #64AERPEG/H). Plates were then sealed and incubated at room temperature in the dark. After an overnight incubation, the TR-FRET signal was detected on a suitable reader (Envision, PerkinElmer). The lower the TR-FRET signal the higher the higher the SHP2 inhibition in cells.
The activity of each compound dilution was calculated as percentage between vehicle DMSO treated cells and no cells, 0% inhibition and 100% inhibition respectively. The percentage activity is fitted against the compound dilutions with a four-parameter logistic regression. The inflection point (i.e. the concentration at which half-maximal inhibition is achieved) is the IC50.

| SMILES | IC50 [1] | IC50 [2] |
| --- | --- | --- |
| Cn1cnc2ccc(-c3n[nH]c4nc(N5CC[C@@H]6[C@H](C5)[C@@]6(CN)c5ccccc5F)cnc34)cc21 | < 500 nM | < 1000 nM |
| COCCn1ccc2c(F)c(-c3n[nH]c4nc(N5CC[C@@H]6[C@H](C5)[C@@]6(CN)c5ccccc5F)cnc34)ccc2c1=O | – | < 1000 nM |
| NC[C@]1(c2ccccc2F)[C@@H]2CCN(c3cnc4c(-c5cccc6c5CCNC6=O)n[nH]c4n3)C[C@@H]21 | < 500 nM | < 1000 nM |
| NC[C@]1(c2ccccc2F)[C@@H]2CCN(c3cnc4c(-c5cnc6c(c5)CC(=O)N6)n[nH]c4n3)C[C@@H]21 | < 500 nM | < 1000 nM |
| Cc1csc([C@@]2(CN)[C@@H]3CN(c4cnc5c(-c6ccc7nn(C(F)F)cc7c6F)n[nH]c5n4)C[C@@H]32)n1 | < 500 nM | < 1000 nM |
| Cc1csc([C@@]2(CN)[C@@H]3CN(c4cnc5c(-c6ccnc(C)c6F)n[nH]c5n4)C[C@@H]32)n1 | – | < 1000 nM |
| Cc1csc([C@@]2(CN)[C@@H]3CN(c4cnc5c(-c6ccc7c(c6)n(C)c(=O)n7C)n[nH]c5n4)C[C@@H]32)n1 | < 500 nM | < 1000 nM |
| Cc1csc([C@@]2(CN)[C@@H]3CN(c4cnc5c(-c6ccc7c(c6)CC(=O)N7C)n[nH]c5n4)C[C@@H]32)n1 | – | < 1000 nM |
| NC[C@]1(c2ccccc2F)[C@@H]2CCN(c3cnc4c(-c5ccc6ncn(C(F)F)c6c5)n[nH]c4n3)C[C@@H]21 | < 500 nM | < 1000 nM |
| Cc1csc([C@@]2(CN)[C@@H]3CN(c4cnc5c(-c6ccc7c(=O)[nH]ccc7c6F)n[nH]c5n4)C[C@@H]32)n1 | < 500 nM | < 1000 nM |
| CC(=O)N1CCc2cc(-c3n[nH]c4nc(N5CC[C@@H]6[C@H](C5)[C@@]6(CN)c5ccccc5F)cnc34)ccc21 | < 500 nM | < 1000 nM |
| NC[C@]1(c2ccccc2F)[C@@H]2CCN(c3cnc4c(-c5ccc6c(=O)[nH]ccc6c5F)n[nH]c4n3)C[C@@H]21 | < 500 nM | < 1000 nM |
| Cc1csc([C@@]2(CN)[C@@H]3CN(c4cnc5c(-c6ccc7c(=O)[nH]ccc7c6)n[nH]c5n4)C[C@@H]32)n1 | – | < 1000 nM |
| NC[C@]1(c2ccccc2F)[C@@H]2CCN(c3cnc4c(-c5ccc6nn(C(F)F)cc6c5F)n[nH]c4n3)C[C@@H]21 | < 500 nM | < 1000 nM |
| NC[C@]1(c2ccccc2F)[C@@H]2CCN(c3cnc4c(-c5ccc6c(=O)[nH]cnc6c5)n[nH]c4n3)C[C@@H]21 | < 500 nM | < 1000 nM |
| Cn1ccc2cc(-c3n[nH]c4nc(N5CC[C@@H]6[C@H](C5)[C@@]6(CN)c5ccccc5F)cnc34)ccc2c1=O | < 500 nM | < 1000 nM |
| NC[C@]1(c2ccccc2F)[C@@H]2CCN(c3cnc4c(-c5ccc6[nH]c(=O)sc6c5Cl)n[nH]c4n3)C[C@@H]21 | < 500 nM | < 1000 nM |
